From PMC6504873, “High-throughput screening of the Plasmodium falciparum cGMP-dependent protein kinase identified a thiazole scaffold which kills erythrocytic and sexual stage parasites” (Scientific Reports, 2019)
Read-outs that look alike come from different tables or passages of the source.

Protein sequences, listed by entry. Tags and fused reporters are not part of them.
UniProt O00329, whole entry: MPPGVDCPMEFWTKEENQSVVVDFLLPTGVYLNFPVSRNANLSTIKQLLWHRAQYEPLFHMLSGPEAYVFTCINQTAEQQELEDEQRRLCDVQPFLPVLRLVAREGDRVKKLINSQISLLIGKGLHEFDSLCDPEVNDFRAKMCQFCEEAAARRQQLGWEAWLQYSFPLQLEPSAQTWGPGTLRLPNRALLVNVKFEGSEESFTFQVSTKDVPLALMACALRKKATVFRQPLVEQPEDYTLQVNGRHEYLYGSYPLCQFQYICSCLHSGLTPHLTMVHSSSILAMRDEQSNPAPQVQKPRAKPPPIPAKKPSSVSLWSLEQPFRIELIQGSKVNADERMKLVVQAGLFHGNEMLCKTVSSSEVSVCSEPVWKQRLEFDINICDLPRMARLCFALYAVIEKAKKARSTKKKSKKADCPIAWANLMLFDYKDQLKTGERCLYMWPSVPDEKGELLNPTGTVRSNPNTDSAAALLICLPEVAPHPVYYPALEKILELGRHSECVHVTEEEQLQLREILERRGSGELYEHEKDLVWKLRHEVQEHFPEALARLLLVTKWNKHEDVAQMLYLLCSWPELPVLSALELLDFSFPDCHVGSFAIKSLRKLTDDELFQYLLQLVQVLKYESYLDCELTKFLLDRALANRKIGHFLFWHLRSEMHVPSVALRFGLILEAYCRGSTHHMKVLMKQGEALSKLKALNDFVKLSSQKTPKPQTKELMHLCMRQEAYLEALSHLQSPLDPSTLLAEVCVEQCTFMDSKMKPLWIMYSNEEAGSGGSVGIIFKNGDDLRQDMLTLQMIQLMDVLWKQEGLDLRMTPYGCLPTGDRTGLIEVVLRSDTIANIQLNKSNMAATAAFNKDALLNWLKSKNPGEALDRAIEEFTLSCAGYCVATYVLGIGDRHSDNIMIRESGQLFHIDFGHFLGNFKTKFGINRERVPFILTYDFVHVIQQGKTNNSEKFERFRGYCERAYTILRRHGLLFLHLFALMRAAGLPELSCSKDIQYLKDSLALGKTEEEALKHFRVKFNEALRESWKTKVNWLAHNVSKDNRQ
UniProt P06239, whole entry: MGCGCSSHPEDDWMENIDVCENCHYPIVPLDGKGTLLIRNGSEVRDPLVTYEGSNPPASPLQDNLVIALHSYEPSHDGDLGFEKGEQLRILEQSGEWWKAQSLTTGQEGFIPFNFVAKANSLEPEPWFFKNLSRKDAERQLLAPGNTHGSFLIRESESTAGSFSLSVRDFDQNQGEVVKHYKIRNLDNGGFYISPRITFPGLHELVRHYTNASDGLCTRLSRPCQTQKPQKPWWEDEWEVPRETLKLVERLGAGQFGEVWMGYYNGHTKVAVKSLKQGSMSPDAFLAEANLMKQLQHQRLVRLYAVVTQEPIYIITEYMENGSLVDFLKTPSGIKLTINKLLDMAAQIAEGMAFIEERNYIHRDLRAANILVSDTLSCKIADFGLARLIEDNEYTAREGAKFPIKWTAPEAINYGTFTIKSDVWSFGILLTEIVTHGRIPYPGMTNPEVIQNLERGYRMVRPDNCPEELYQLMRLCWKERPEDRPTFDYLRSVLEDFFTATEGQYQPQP
UniProt Q96GD4, whole entry: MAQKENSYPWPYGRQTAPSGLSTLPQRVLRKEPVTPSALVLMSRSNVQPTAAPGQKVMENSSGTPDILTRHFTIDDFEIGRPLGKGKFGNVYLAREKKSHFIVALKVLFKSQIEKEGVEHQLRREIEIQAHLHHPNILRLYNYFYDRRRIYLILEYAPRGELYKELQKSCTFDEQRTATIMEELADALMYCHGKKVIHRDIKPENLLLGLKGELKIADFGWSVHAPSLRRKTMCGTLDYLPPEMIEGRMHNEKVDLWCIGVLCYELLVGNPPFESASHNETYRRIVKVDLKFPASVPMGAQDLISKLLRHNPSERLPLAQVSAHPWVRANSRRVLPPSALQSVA
UniProt P27986, whole entry partner: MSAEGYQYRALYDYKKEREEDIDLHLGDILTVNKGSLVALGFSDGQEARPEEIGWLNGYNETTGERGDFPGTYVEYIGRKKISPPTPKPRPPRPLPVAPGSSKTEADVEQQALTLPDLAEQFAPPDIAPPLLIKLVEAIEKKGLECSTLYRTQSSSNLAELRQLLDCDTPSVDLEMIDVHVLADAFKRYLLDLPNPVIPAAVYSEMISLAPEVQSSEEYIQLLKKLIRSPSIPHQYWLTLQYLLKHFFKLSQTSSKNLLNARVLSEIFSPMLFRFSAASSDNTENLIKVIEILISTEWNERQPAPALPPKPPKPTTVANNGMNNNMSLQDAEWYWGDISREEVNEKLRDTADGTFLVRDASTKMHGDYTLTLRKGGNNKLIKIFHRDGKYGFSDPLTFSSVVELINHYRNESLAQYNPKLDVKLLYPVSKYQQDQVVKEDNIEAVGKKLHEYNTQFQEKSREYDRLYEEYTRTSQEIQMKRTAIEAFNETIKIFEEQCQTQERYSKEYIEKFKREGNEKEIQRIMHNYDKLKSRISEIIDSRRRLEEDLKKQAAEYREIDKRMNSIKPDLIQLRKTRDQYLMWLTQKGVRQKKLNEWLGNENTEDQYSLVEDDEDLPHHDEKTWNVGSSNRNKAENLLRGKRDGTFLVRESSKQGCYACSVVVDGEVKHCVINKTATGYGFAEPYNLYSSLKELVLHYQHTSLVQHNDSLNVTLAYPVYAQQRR

Columns and labels:
PI3KD = PI3KD (Homo sapiens, UniProt O00329); assay: Preliminary safety test on human PI3KD kinase; format: biochemical; conditions: read-out: PI3KD
HepG2 cells = assay: Cytotoxicity assay (CellTiter-Glo); format: cell-based, human; conditions: read-out: HepG2; for IC50: HepG2 cytotoxicity
LCK = LCK (Homo sapiens, UniProt P06239); assay: Preliminary safety test on human LCK kinase; format: biochemical; conditions: read-out: LCK
AuroraB = AuroraB (Homo sapiens, UniProt Q96GD4); assay: Preliminary safety test on human AuroraB kinase; format: biochemical; conditions: read-out: AuroraB
pKa (ionisation profile) = conditions: measures the ionisation profile
[1] = Supplementary Table 2, cytotoxicity

| Compound | IC50 (PI3KD) [µM] | IC50 (HepG2 cells) [µM] | IC50 (LCK) [µM] | IC50 (AuroraB) [µM] | also measured |
| --- | --- | --- | --- | --- | --- |
| CCn1nc(-c2ccc3cc(C(O)c4cccnc4)[nH]c3c2)c(C(N)=O)c1NC (centres unmarked) | > 50.1 | 15.8 | 2 | 2 | – |
| CCC(C)n1nc(-c2ccc(OCC(C)C)cc2)c(C(N)=O)c1NC (centres unmarked) | > 50.1 | > 100 | 12.6 | 7.9 | – |
| COc1ccc(-c2n[nH]cc2-c2ccncn2)cc1 | > 50.1 | > 100 | > 31.6 | > 31.6 | – |
| Nc1nccc(-c2sc(C3CCNCC3)nc2-c2cccc(NS(=O)(=O)c3ccoc3)c2F)n1 | – | – | – | – | EC50 (HepG2 cells; [1]): 79.4 µM; EC50 (HepG2 cells; Table 2, cytotoxicity, 48 h): 79 µM; pKa (pKa (ionisation profile)): 9.8 |
| Nc1nccc(-c2[nH]c(C3CCOCC3)nc2-c2cccc(NS(=O)(=O)c3ccoc3)c2F)n1 | > 50.1 | 63.1 | 0.316 | 1 | – |
| Nc1[nH]nc(-c2ccncc2)c1-c1ccc2c(c1)OCO2 | > 50.1 | > 100 | > 31.6 | 15.8 | – |
| CC(C)(C)n1nc(-c2ccc3cc[nH]c3c2)c(C(N)=O)c1N | > 50.1 | 79.4 | 1.3 | 15.8 | – |
| CC(CO)Nc1nccc(-c2c(-c3ccccc3)nn3c2COCC3)n1 (centres unmarked) | > 50.1 | > 100 | > 31.6 | 20 | – |
| NCc1ccc(-c2nc(-c3cc(O)ccc3Br)c(-c3ccncc3)[nH]2)cc1 | – | – | – | – | IC50 (PI3KD; tested form: HCl): 25.1 µM; IC50 (HepG2 cells; tested form: HCl): 12.6 µM; IC50 (LCK; tested form: HCl): 3.2 µM; IC50 (AuroraB; tested form: HCl): 15.8 µM |
| Nc1nccc(-c2sc(N3CCNCC3)nc2-c2cccc(NS(=O)(=O)c3ccoc3)c2Cl)n1 | – | – | – | – | EC50 (HepG2 cells; [1]): 39.8 µM; EC50 (HepG2 cells; Table 2, cytotoxicity, 48 h): 39 µM; pKa (pKa (ionisation profile)): 8.8 |
| CC(C)(CNS(C)(=O)=O)c1nc(-c2ccc(Cl)c(O)c2)c(-c2ccncc2)[nH]1 | – | – | – | – | IC50 (PI3KD; tested form: HCl): > 50.1 µM; IC50 (HepG2 cells; tested form: HCl): 25.1 µM; IC50 (LCK; tested form: HCl): 2 µM; IC50 (AuroraB; tested form: HCl): 20 µM |
| O=C(O)c1cccc(-c2nn3ccccc3c2-c2ccncc2)c1 | > 50.1 | > 100 | > 31.6 | > 31.6 | – |
| CC(C)(C(=O)N1CCCC1)c1nc(-c2ccc(Cl)c(Cl)c2)c(-c2ccncc2)[nH]1 | – | – | – | – | IC50 (PI3KD; tested form: HCl): > 50.1 µM; IC50 (HepG2 cells; tested form: HCl): 31.6 µM; IC50 (LCK; tested form: HCl): 3.2 µM; IC50 (AuroraB; tested form: HCl): > 31.6 µM |
| CNc1nccc(-c2c(-c3ccc(F)cc3)ncn2[C@H](CO)CC(C)C)n1 | > 50.1 | > 100 | 15.8 | 25.1 | – |
| CC(C)(NS(C)(=O)=O)c1nc(-c2ccc(Cl)c(O)c2)c(-c2ccncc2)[nH]1 | – | – | – | – | IC50 (PI3KD; tested form: HCl): > 50.1 µM; IC50 (HepG2 cells; tested form: HCl): 10 µM; IC50 (LCK; tested form: HCl): 0.6 µM; IC50 (AuroraB; tested form: HCl): > 31.6 µM |
| CC(C)c1nc(-c2cccc(C(F)(F)F)c2)c(-c2ccnc(NCCO)n2)[nH]1 | > 50.1 | > 100 | > 31.6 | > 31.6 | – |
| Nc1nccc(-c2sc(N)nc2-c2cccc(NS(=O)(=O)c3c(F)cccc3F)c2F)n1 | > 50.1 | > 100 | 0.5 | 0.251 | – |
| FC(F)(F)c1cccc(-c2ncn(CC3CC3)c2-c2ccncc2)c1 | > 50.1 | > 100 | > 31.6 | > 31.6 | – |
| CC(C)(NC(=O)c1cccnc1)c1nc(-c2ccc(Cl)c(O)c2)c(-c2ccncc2)[nH]1 | – | – | – | – | IC50 (PI3KD; tested form: HCl): > 50.1 µM; IC50 (HepG2 cells; tested form: HCl): 31.6 µM; IC50 (LCK; tested form: HCl): 12.6 µM; IC50 (AuroraB; tested form: HCl): > 31.6 µM |

| Compound | IC50 (PI3KD) [µM] | IC50 (HepG2 cells) [µM] | IC50 (LCK) [µM] | IC50 (AuroraB) [µM] | also measured |
| --- | --- | --- | --- | --- | --- |
| O=C(O)c1ccc(-c2nc(-c3cccc(O)c3)c(-c3ccncc3)[nH]2)cc1 | > 50.1 | > 100 | 10 | 12.6 | – |
| CC1(c2nc(-c3cccc(NS(=O)(=O)c4ccoc4)c3F)c(-c3ccnc(N)n3)s2)CCNCC1 | – | – | – | – | EC50 (HepG2 cells; [1]): 50.1 µM; EC50 (HepG2 cells; Table 2, cytotoxicity, 48 h): 50 µM; pKa (pKa (ionisation profile)): 9.8 |
| OCc1ccn2nc(-c3ccc(F)cc3)c(-c3ccncc3)c2c1 | > 50.1 | > 100 | 25.1 | > 31.6 | – |
| COc1ccc(-c2nn(C(C)(C)C)c(N)c2C(N)=O)cc1 | – | – | – | – | IC50 (PI3KD; tested form: TFA): > 50.1 µM; IC50 (HepG2 cells; tested form: TFA): > 100 µM; IC50 (LCK; tested form: TFA): 1 µM; IC50 (AuroraB; tested form: TFA): 25.1 µM |
| CC(C)(C)Cn1nc(-c2ccc3scnc3c2)c(C(N)=O)c1N | > 50.1 | > 100 | 1.3 | > 31.6 | – |
| FC(F)(F)c1cccc(-c2n[nH]cc2-c2ccncc2)c1 | > 50.1 | > 100 | 20 | > 31.6 | – |
| CNc1c(C(N)=O)c(-c2ccc3scnc3c2)nn1-c1cccc(F)c1 | > 50.1 | > 100 | 2 | > 31.6 | – |
| N#Cc1ccc(-c2nc(-c3ccncc3)c(-c3ccncc3)[nH]2)cc1 | > 50.1 | > 100 | > 31.6 | > 31.6 | – |
| COCCN1CCC(CNCC(C)(C)c2nc(-c3ccc(Cl)c(O)c3)c(-c3ccncc3)[nH]2)CC1 | – | – | – | – | IC50 (PI3KD; tested form: HCl): > 50.1 µM; IC50 (HepG2 cells; tested form: HCl): 31.6 µM; IC50 (LCK; tested form: HCl): 4 µM; IC50 (AuroraB; tested form: HCl): > 31.6 µM |
| CC(C)(CNCc1nccs1)c1nc(-c2ccc(Cl)c(O)c2)c(-c2ccncc2)[nH]1 | – | – | – | – | IC50 (PI3KD; tested form: HCl): > 50.1 µM; IC50 (HepG2 cells; tested form: HCl): 7.9 µM; IC50 (LCK; tested form: HCl): 2.5 µM; IC50 (AuroraB; tested form: HCl): > 31.6 µM |
| CC(C)(CN)c1nc(-c2ccc(Cl)c(Cl)c2)c(-c2ccncc2)[nH]1 | – | – | – | – | IC50 (PI3KD; tested form: HCl): > 50.1 µM; IC50 (HepG2 cells; tested form: HCl): 50.1 µM; IC50 (LCK; tested form: HCl): 5 µM; IC50 (AuroraB; tested form: HCl): > 31.6 µM |
| CC(C)(CN1CCCCC1)c1nc(-c2ccnc(N)n2)c(-c2ccc(Cl)c(O)c2)[nH]1 | – | – | – | – | IC50 (PI3KD; tested form: HCl): > 50.1 µM; IC50 (HepG2 cells; tested form: HCl): 31.6 µM; IC50 (LCK; tested form: HCl): 10 µM; IC50 (AuroraB; tested form: HCl): 7.9 µM |
| NC(=O)c1c(-c2ccc3c(c2)OCO3)nn(-c2ccc(F)cc2F)c1N | – | – | – | – | IC50 (PI3KD; tested form: TFA): > 50.1 µM; IC50 (HepG2 cells; tested form: TFA): > 100 µM; IC50 (LCK; tested form: TFA): 2.5 µM; IC50 (AuroraB; tested form: TFA): > 31.6 µM |
| COc1cc(-c2nc(C(C)(C)CN)[nH]c2-c2ccncc2)ccc1Cl | > 50.1 | 39.8 | 1 | > 31.6 | – |
| N#Cc1ccc(-c2nc(-c3ccncc3)c(-c3ccccn3)[nH]2)cc1 | > 50.1 | > 100 | > 31.6 | > 31.6 | – |
| c1cncc(-c2n[nH]cc2-c2ccncc2)c1 | > 50.1 | > 100 | > 31.6 | 25.1 | – |
| CC(C)CNc1[nH]nc(-c2ccc3scnc3c2)c1C(N)=O | > 50.1 | > 100 | > 31.6 | > 31.6 | – |
| COc1ccc(-c2nc(S(=O)(=O)C(C)C)[nH]c2-c2ccncc2)cc1 | > 50.1 | > 100 | 6.3 | > 31.6 | – |
| CC(=O)NCC(C)(C)c1nc(-c2ccc(Cl)c(O)c2)c(-c2ccncc2)[nH]1 | – | – | – | – | IC50 (PI3KD; tested form: HCl): > 50.1 µM; IC50 (HepG2 cells; tested form: HCl): 7.9 µM; IC50 (LCK; tested form: HCl): 1.6 µM; IC50 (AuroraB; tested form: HCl): > 31.6 µM |
